Measurements taken from patent US7273951B2, “Polyhydroxy phenols and their use in binding p-selectin” (Astellas Pharma Inc., priority 2003, dated 2007).

Sequences of proteins named here, by UniProt entry; tags and fusion partners are left off. A line that says so, or that is headed by a name, gives the form on record, which may keep a tag or linker. Residues count along the entry.
UniProt P16109, 42-771 with tags or gaps limits assumed: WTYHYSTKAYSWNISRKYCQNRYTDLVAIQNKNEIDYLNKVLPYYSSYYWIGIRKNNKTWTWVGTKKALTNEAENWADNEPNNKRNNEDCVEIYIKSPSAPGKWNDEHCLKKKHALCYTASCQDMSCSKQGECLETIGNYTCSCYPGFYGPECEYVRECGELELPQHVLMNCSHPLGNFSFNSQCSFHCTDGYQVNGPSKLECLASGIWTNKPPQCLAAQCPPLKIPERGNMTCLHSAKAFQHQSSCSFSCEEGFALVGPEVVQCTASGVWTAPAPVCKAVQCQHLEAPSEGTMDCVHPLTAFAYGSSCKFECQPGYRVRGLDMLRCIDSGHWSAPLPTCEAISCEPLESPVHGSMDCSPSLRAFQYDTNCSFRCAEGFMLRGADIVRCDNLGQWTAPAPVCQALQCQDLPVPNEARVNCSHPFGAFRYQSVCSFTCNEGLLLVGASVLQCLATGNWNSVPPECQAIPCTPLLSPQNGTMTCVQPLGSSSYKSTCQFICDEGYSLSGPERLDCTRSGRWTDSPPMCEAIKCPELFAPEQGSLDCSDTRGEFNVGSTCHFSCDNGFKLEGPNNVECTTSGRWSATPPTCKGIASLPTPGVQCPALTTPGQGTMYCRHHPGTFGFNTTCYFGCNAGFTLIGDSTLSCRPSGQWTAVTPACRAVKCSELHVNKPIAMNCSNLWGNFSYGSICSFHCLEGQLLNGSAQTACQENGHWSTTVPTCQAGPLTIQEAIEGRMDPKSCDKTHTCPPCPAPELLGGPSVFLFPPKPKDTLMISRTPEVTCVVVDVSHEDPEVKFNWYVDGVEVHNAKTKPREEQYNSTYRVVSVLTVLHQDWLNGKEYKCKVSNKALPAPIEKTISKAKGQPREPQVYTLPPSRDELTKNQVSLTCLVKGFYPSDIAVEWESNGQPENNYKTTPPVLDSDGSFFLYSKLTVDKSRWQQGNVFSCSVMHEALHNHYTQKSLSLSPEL

Target: human P-selectin (Homo sapiens, UniProt P16109)
Test: Competition ELISA: SH31-peroxidase (SH31-PO) binding, purified Ugi products
Settings: read-out: IC50, inhibition of SH31-PO binding to human P-selectin, purified compounds, separated isomers, initial tests
Experimental: Next, the most promising compounds were purified and the isomers were separated in order to establish IC50-values. […] The assay is currently being optimised for the Trp-compounds. Finally, several further compounds were prepared, based on the most promising structures to establish the influence of the various substituents, and tested.
Purified Ugi products were assayed for its ability to inhibit SH31-peroxidase (SH31-PO) binding to human P-selectin. SH31-PO, a tetrameric SH31/strepPO complex was freshly prepared by incubating streptavidin-PO (Amersham Life Science, Little Chalfont, UK; 5.0 μl 2.0 μM) and SH31-biotin (biotin-[…] , 1.5 μl 190 μM) for 2 hours at room temperature in assay buffer (20 mM HEPES, 150 mM NaCl, 1 mM CaCl2, pH 7.4). For competition studies, a 96 wells microtiter plate (high binding, flat bottom, Costar, Corning, U.S.A.) was coated overnight at 4° C. with 10 μg/ml goat anti-human IgG (Fc specific; Sigma-Aldrich, Zwijndrecht, the Netherlands) in coating buffer (50 mM NaHCO3, pH 9.6). Subsequently, wells were washed with assay buffer and incubated for 1 hour at 37° C. with blocking buffer (3% BSA in assay buffer). After washing with assay buffer, the wells were incubated for 2 hours at 37° C. with human P-selectin IgG-Fc chimera (R&D Systems Europe Ltd., Abingdon, United Kingdom; 0.3 μg/ml). Subsequently, wells were washed with assay buffer and incubated for 1 hour at 4° C. with the SH31-PO complex with or without Ugi products (range 0.4-100 μM). The wells were washed six times with easy buffer and substrate (3,3′,5,5′-tetramethylbenzine (TMB)/H2O2; Pierce, Rockford, USA) was added and wells were incubated at room temperature for 15 minutes. The reaction was halted by addition of 2 M of H2SO4 and the absorbance was measured at 450 nm. IC50s for tested compounds are listed in FIG. 3 together with their chemical structure.

Structure (SMILES)	pIC50 (Isomer 1)	pIC50 (Isomer 2)
CCC(C(=O)NCCC(=O)O)N(C(=O)c1cc(O)c(O)c(O)c1)[C@@H](Cc1ccccc1)C(=O)O (single isomer, unassigned)	4.92	5.30
CCC(C(=O)N[C@@H](CCC(=O)O)C(=O)O)N(C(=O)c1cc(O)c(O)c(O)c1)[C@@H](Cc1ccccc1)C(=O)O (single isomer, unassigned)	4.74	5.10

pIC50: −log10 of the molar value. Where two headings read alike, the source gives them in different places.
